The target in this test is T1, C-X-C chemokine receptor type 3 (Homo sapiens, UniProt P49682).
T1 sequence (P49682 whole entry): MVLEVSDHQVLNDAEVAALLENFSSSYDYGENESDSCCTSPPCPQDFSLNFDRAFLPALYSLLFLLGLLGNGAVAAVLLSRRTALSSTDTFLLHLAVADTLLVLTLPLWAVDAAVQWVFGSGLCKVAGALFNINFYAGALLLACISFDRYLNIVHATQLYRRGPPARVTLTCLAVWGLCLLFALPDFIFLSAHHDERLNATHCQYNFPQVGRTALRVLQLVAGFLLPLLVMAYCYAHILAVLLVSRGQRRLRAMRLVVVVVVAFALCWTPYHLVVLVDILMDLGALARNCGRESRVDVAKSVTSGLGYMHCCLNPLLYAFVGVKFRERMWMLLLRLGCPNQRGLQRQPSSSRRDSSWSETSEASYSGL
The test can be described thus: Displacement of [125I]-IP-10 from CXCR3 in presence of 100% human serum. In outline:
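Radioligand competition with [125I]-IP-10 at CXCR3 in buffer containing 100% human serum; IC50 reported.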
For orientation: Loss of bound radioactivity is the signal in a displacement assay; it reports binding, not function.

Usually IC50 stands for the concentration that gives 50% inhibition. In the case of `CCS(=O)(=O)CCN(C(=O)Cc1ccc(F)c(C(F)(F)F)c1)[C@H](C)c1nc2ncccc2c(=O)n1-c1ccc(C#N)cc1`, the IC50 is 46 nM.

Source of the values: ChEMBL document CHEMBL1938274, “Discovery of potent and specific CXCR3 antagonists” (Bioorg Med Chem Lett, 2012).
